{
  "source": "patent US20100068703A1",
  "target": "calcium-independent phospholipase A2β with (His)6 tag, purified recombinant from Sf9 cells",
  "assay": "cell-based or functional assay",
  "data": [
    {"substance": "High purity bovine calmodulin (Calbiochem), calcium-activated (from UniProt P62157 2-149)", "values": [
      {"measurement": "activity of CaM-inhibited iPLA2β with 1 mol % oleoyl-CoA added, BODIPY-PC fluorescence assay (FIG. 11B) (% of initial activity)", "value": 40},
      {"measurement": "decrease of lysolipid products of iPLA2β (LysoBODIPY-PC, 16:0-LysoPC, 18:1-LysoPC), measured by ESI-MS (FIG. 11E-G)", "value": 80, "unit": "%"},
      {"measurement": "inhibition of iPLA2β activity with 1-palmitoyl-2-[1-14C]-oleoyl-sn-glycero-3-phosphocholine as substrate (FIG. 11I)", "value": 70, "unit": "%"},
      {"measurement": "inhibition of iPLA2β-catalyzed hydrolysis of BODIPY-PC, real-time fluorescence assay (FIG. 11A)", "value": "70 to 80", "unit": "%"},
      {"measurement": "inhibition of palmitoyl-CoA thioesterase activity of iPLA2β (FIG. 9)", "value": 10, "unit": "%"},
      {"measurement": "inhibition of phospholipase A2 activity of iPLA2β ([1-14C]-POPC in POPC vesicles, FIG. 9)", "value": "70 to 80", "unit": "%"},
      {"measurement": "activity of CaM-inhibited iPLA2β with oleoyl-CoA (10 µM), [14C]-POPC substrate (FIG. 11I)", "setting": "scale: % of the activity observed with oleoyl-CoA alone", "value": 75}
    ]}
  ]
}
